# scFv variants of Ab-14 (light chain) against a SARS-CoV-2 spike peptide

Antigen: PDVDLGDISGINAS, a 14-residue peptide of the SARS-CoV-2 spike HR2 region.

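The starting antibody came from a phage panning campaign against this peptide. Library AAYL50 holds single substitutions and randomly drawn double and triple substitutions in the CDRs. Affinity was read by AlphaSeq, a pooled yeast mating assay with surface-displayed partners. Mating (16 h, 30 °C) was followed by selection of diploids and sequencing of their barcodes. Each replicate has its own calibration line, from reference interactions of the BCL2 family. There are three technical replicates.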

Each scFv is VH, a 15-residue (Gly4Ser)3 linker, VL, as in the parent Ab-14, and differs from it in the CDRs of the light chain only.
VH: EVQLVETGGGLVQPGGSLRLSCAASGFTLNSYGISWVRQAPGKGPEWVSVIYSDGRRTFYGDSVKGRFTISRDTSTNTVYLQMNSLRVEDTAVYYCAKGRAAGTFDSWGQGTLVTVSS
VL: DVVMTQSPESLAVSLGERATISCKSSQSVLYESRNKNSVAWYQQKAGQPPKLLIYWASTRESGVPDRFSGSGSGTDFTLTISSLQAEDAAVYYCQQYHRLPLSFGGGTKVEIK

Positions count from residue 1 of the parent VL; L30S puts S in place of L.
This list gathers variants with a substitution at L30 (VL, numbered from residue 1).
Affinities are written as log10 Kd with Kd in nM; a lower number is a better binder.
Averages over replicates are reported, and they cover detected replicates only.
Where no diploid with the target was found in that replicate, the entry reads "nd": below detection, most likely a poor binder, though not proof of it.
The list is sorted by this average, lowest first, undetected variants last.
In this assay the parent's reference entry averaged 0.65; its copy inside this library read 1.68.
Nonspecific signal, from three strains lacking the peptide, appeared in 18% of pairings of library AAYL50, centred on 4.19 (5% of these signals below 2.99); values are not corrected for it. The control count says in how many pairings with the empty strains this scFv gave a signal.

* L30S+R34Q+S62M: 0.59, 0.73, 0.69 (mean 0.67; controls 2 of 9)
* L30E+S62T: 0.57, 0.82, 0.85 (mean 0.75; controls 2 of 9)
* V29I+L30G: 0.76, 0.93, 0.88 (mean 0.85; controls 2 of 9)
* L30S+E32H+K36V: 0.90, 1.03, 0.94 (mean 0.95; controls 4 of 9)
* L30F+Y31G+S38P: 1.01, 1.12, 1.00 (mean 1.04; controls 1 of 9)
* L30P: 0.96, 1.16, 1.12 (mean 1.08; controls 5 of 9)
* K24H+L30F+L102P: 0.96, 1.17, 1.47 (mean 1.20; controls 6 of 9)
* L30F+S33G+L100I: 1.14, 1.45, 1.19 (mean 1.26; controls 1 of 9)
* L30I: 1.20, 1.39, 1.29 (mean 1.29; controls 7 of 9)
* S25F+L30Q+Y31M: 1.12, 1.41, 1.38 (mean 1.30; controls 3 of 9)
* S28W+L30Q+N35W: 1.51, 1.67, 1.42 (mean 1.53; controls 0 of 9)
* V29A+L30E+R99E: 1.57, 1.46, 1.58 (mean 1.54; controls 0 of 9)
* L30N+N37Q+V39E: 1.70, 1.64, 1.53 (mean 1.62; controls 1 of 9)
* Q27A+L30W: 1.61, 1.73, 1.88 (mean 1.74; controls 2 of 9)
* S26P+L30T+N35W: 1.48, 1.88, 2.25 (mean 1.87; controls 0 of 9)
* L30W+E32R+K36R: 1.44, 1.94, 2.61 (mean 2.00; controls 0 of 9)
* L30C+S58A+R99V: 1.79, 2.00, 2.59 (mean 2.13; controls 0 of 9)
* L30Y+S33F+S103M: 2.26, 1.99, 2.24 (mean 2.16; controls 2 of 9)
* L30H+K36H+Q96L: 3.19, 2.63, 2.71 (mean 2.84; controls 2 of 9)
* L30A+S38T+H98Q: 2.98, 2.87, 2.74 (mean 2.86; controls 1 of 9)
* L30Q+E32F+Q95E: 2.51, 3.21, 2.95 (mean 2.89; controls 2 of 9)
* K24M+L30N+L102K: 3.31, 3.19, 2.41 (mean 2.97; controls 2 of 9)
* L30H+K36Y+V39N: nd, 3.17, nd (controls 4 of 9)
* L30S+L100S+P101I: nd, 3.67, nd (controls 1 of 9)
* V29S+L30R+N37W: 3.78, 3.51, 3.73 (mean 3.67; controls 3 of 9)
* L30K+A40W+P101D: 4.48, 3.20, nd (mean 3.84; controls 1 of 9)
* L30T+S58F+H98E: 3.60, nd, 4.25 (mean 3.92; controls 3 of 9)
* L30P+Y97A+L100D: 4.00, 3.42, 4.95 (mean 4.12; controls 4 of 9)
* K24Y+L30M+A57W: nd, 4.32, 5.52 (mean 4.92; controls 3 of 9)
* L30S+V39W: nd, 5.09, nd (controls 1 of 9)
* L30D+N35Q+P101G: nd, 4.91, 5.29 (mean 5.10; controls 1 of 9)
* L30I+R60L+H98P: nd, nd, nd (controls 2 of 9)
* L30Q+A40W+L100Q: nd, nd, nd (controls 0 of 9)
* L30Y+S38G+T59A: nd, nd, nd (controls 1 of 9)
* L30M+S38H+R60Y: nd, nd, nd (controls 0 of 9)
* Q27T+L30M+L100V: nd, nd, nd (controls 0 of 9)
* L30M+Y97K: nd, nd, nd (controls 1 of 9)
* K24V+L30P+Y97L: nd, nd, nd (controls 0 of 9)
* L30N+Q95G+L100C: nd, nd, nd (controls 1 of 9)
* V29E+L30I+Q96W: nd, nd, nd (controls 0 of 9)
* L30S+S58P+R60F: nd, nd, nd (controls 0 of 9)

Repeated from above, the 4 best binders with a signal in all replicates:

* L30S+R34Q+S62M: 0.59, 0.73, 0.69 (mean 0.67; controls 2 of 9)
* L30E+S62T: 0.57, 0.82, 0.85 (mean 0.75; controls 2 of 9)
* V29I+L30G: 0.76, 0.93, 0.88 (mean 0.85; controls 2 of 9)
* L30S+E32H+K36V: 0.90, 1.03, 0.94 (mean 0.95; controls 4 of 9)

Values reported by Engelhart et al. 2022, doi:10.1038/s41597-022-01779-4 (FLAb copy).